In ChEMBL document CHEMBL4145549, “Potholing of the hydrophobic heme oxygenase-1 western region for the search of potent and selective imidazole-based inhibitors” (Eur J Med Chem, 2018):

Organism: Rattus norvegicus
Assay: Selectivity index, ratio of IC50 for HO-2 in Sprague-Dawley albino rat brain microsomes to IC50 for HO-1 in Sprague-Dawley albino rat spleen microsomes

- Ratio IC50: > 143
Compound: c1ccc(CCC2(Cn3ccnc3)OCCO2)cc1
